Results from ChEMBL document CHEMBL1144531, “Novel selective inhibitors of neutral endopeptidase for the treatment of female sexual arousal disorder” (Bioorg Med Chem, 2007).

Species: Homo sapiens
Assay: Protein binding in human plasma at 1 ug/ml by equilibrium dialysis
Settings: read-out: PPB (converted)

| fraction unbound at 1 ug/ml | Compound |
| --- | --- |
| 0.021 | CCC[C@H](CC1(C(=O)Nc2nnc(CC)s2)CCCC1)C(=O)O |
| 0.017 | COCC[C@H](CC1(C(=O)NCCCc2ccc(Cl)cc2)CCCC1)C(=O)O |
